Source: publication PMC7049616 (Acta Pharmaceutica Sinica. B, 2019)

System: TEL-VEGFR2-BaF3
Test: Anti-proliferation assay
Format: cell-based
Conditions: 72 h

CCN(CC)CCNC(=O)c1c(C)[nH]c(/C=C2\C(=O)Nc3ccc(F)cc32)c1C [Sunitinib]
GI50: 5 nM
